# Results from patent publication US11479617B2, “Chelator-functionalized glycosaminoglycans” (priority 2018, dated 2022).
# Tests used:
# [1] = Qualitative chelation (colorimetry); type: binding; conditions: dilute Cr^3+ and Cr^6+ in water
# [2] = tested on: RAW 264.7 macrophages exposed to CoCl2.6H2O; assay: In vitro chelation, acute exposure; type: cell-based, murine; conditions: 100 μg mL^−1 CoCl2.6H2O 18 hours, then 1 mg mL^−1 for 1 minute, fresh media 1 day
# [3] = Qualitative chelation (colorimetry, dialysis); type: binding
# [4] = tested on: NIH-3T3 fibroblasts; assay: Sub-cellular compartment imaging (nuclei, F-actin, mitochondria); conditions: 10 μg mL^−1, 1 day
# [5] = tested on: NIH-3T3 fibroblasts; assay: Cytocompatibility / cellular vitality
# [6] = tested on: RAW 264.7 macrophages; assay: Cytocompatibility / cellular vitality
smiles,measurement,setting,value
OCC(S)CS (stereo not drawn),colorimetric response to chromium,[1],did produce a visible colorimetric response
same,effect on cellular vitality,[2],showed improvement in cellular vitality
same,colorimetric response to cobalt,[3]; dilute Co^2+ in water,strongly colored chelating complexes
same,colorimetric response to nickel,[3]; dilute Ni^2+ in water,strongly colored chelating complexes
same,"morphology of nuclei, F-actin and mitochondria",[4],reduced cortical F-actin structures and disrupted mitochondrial tracks
same,cellular vitality (Calcein AM),"[5]; 100 μg mL^−1, 2 days",dramatically reduced cellular vitality
same,"cytocompatibility (cell enumeration, metabolism, toxicity)",[5]; 2 days,significantly reduced proliferation in a dose-dependent manner
same,cellular vitality (Calcein AM),"[6]; 100 μg mL^−1, 2 days",dramatically reduced cellular vitality
same,"cytocompatibility (cell enumeration, metabolism, toxicity)",[6]; 2 days,significantly reduced proliferation in a dose-dependent manner
